Tests used:
[1] = target: 5-HT1A receptor (Homo sapiens, UniProt P08908); assay: 5-HT1A calcium mobilization assay in Gα16-CHO cells; format: cell-based
[2] = target: SERT (Rattus norvegicus, UniProt P31652); assay: SERT-mediated release, rat brain synaptosomes
[3] = target: 5-HT2A receptor (Homo sapiens, UniProt P28223); assay: cell-based; details: HEK293, read-out: 5-HT2A Emax

Amino acid sequences for entries named in this document (tags omitted).
UniProt P08908, whole entry: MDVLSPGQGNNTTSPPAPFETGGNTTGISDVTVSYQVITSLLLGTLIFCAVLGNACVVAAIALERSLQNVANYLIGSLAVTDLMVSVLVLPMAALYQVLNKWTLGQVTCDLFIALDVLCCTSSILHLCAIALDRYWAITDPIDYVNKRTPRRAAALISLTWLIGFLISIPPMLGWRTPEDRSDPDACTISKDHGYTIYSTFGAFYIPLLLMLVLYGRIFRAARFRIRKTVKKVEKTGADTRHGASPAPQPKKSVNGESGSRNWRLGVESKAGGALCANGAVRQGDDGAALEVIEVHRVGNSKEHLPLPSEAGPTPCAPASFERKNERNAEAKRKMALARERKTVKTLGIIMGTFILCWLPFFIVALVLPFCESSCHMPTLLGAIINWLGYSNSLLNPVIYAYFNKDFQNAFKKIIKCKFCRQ
UniProt P31652, whole entry: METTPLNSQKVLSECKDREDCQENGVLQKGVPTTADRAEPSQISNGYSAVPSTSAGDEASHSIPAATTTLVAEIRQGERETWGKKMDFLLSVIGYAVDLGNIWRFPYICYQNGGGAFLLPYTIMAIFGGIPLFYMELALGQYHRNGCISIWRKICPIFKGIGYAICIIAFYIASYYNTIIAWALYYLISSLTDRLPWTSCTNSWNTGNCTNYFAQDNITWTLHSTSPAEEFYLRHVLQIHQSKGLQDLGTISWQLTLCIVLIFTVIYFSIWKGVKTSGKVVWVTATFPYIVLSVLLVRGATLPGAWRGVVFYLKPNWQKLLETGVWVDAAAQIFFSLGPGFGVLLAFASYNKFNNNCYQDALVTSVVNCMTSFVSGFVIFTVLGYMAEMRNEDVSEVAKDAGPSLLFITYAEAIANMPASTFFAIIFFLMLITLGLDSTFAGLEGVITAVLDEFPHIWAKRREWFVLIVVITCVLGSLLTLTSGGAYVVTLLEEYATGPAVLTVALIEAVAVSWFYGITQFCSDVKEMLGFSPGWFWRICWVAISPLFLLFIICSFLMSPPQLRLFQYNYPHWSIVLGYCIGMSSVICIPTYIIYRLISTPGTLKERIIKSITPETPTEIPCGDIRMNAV
UniProt P28223, whole entry: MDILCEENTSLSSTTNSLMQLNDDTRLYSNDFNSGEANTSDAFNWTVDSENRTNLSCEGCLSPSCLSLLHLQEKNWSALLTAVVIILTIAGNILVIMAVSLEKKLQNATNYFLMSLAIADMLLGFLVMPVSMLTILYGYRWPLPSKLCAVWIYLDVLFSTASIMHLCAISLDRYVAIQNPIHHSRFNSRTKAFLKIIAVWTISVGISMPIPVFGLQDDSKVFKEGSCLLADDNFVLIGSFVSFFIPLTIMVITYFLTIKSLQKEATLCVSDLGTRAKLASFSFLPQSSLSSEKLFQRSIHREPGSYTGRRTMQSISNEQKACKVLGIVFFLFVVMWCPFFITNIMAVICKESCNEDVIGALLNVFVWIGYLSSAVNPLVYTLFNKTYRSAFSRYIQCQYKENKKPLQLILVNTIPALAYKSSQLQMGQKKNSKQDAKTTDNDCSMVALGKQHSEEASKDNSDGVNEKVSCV

SMILES	EC50 [1]	EC50 [2]	Emax [3]
COc1ccc2[nH]cc(CCN(C)C)c2c1 [Compound 7, N,N-dimethyl-5-methoxytryptamine]	0.791 ± 0.133 µM		
CN(C)CCc1c[nH]c2ccc(O)cc12 [Compound 16, N,N-dimethyl-5-hydroxytryptamine]		0.0305 ± 0.0086 µM	100 ± 2%
